This is one part of the list.
These compounds were tested on A. baumannii ATCC 17978 (assay: relative growth (fraction of control); higher = less inhibition). Conditions: 50 µM.

| SMILES | relative growth |
| --- | --- |
| CC(C)NC(=O)N[C@@H]1C=C[C@H](CC(=O)O)O[C@@H]1CO | 0.895 |
| CCCC[C@H](NC(C)=O)C(=O)N[C@@H](CCC(N)=O)C(=O)N[C@@H](Cc1c[nH]cn1)C(=O)N[C@H](Cc1ccccc1)C(=O)N[C@@H](CCCNC(=N)N)C(=O)N[C@H](Cc1c[nH]c2ccccc12)C(=O)NCC(N)=O | 0.902 |
| CN1CCN(C(=O)C[C@H]2C=C[C@@H](NC(=O)c3ccc4c(c3)OCO4)[C@H](CO)O2)CC1 | 1.17 |
| O=C(C[C@H]1CC=CCCC(=O)OCCNC1=O)NCCO | 1.1 |
| CN1CCN(C(=O)C[C@H]2CC[C@@H](NC(=O)Cc3ccccn3)[C@@H](CO)O2)CC1 | 1.02 |
| Cc1cc2nc3c(=O)[nH]c(=O)nc-3n(C[C@@H](O)[C@@H](O)[C@@H](O)COP(=O)([O-])O)c2cc1C.[Na+] | 0.917 |
| N/N=C(\C(=O)O)c1ccccc1N | 1.04 |
| COc1ccc([Si](C)(C)[C@@H]2[C@@H](CCO)O[C@]3(C(=O)N(Cc4cccc(N5CCCCC5=O)c4)c4ccccc43)[C@H]2C)cc1 | 0.744 |
| O=C(C[C@@H]1C=C[C@@H](NC(=O)CN2CCOCC2)[C@H](CO)O1)NCCc1ccncc1 | 0.967 |
| CCCN1C[C@H](C)[C@@H](OC)CN(C)C(=O)c2cc(NS(=O)(=O)c3cn(C)cn3)ccc2OC[C@H]1C | 0.951 |
| C[C@@H]1CN([C@@H](C)CO)C(=O)c2cc(C#Cc3ccccc3F)cnc2O[C@@H]1CN(C)C(=O)Cc1cccnc1 | 1.06 |
| C[C@@H]1CN([C@H](C)CO)S(=O)(=O)c2ccc(C#Cc3ccccn3)cc2O[C@@H]1CN(C)Cc1ccccc1 | 0.952 |
| O=C(C[C@H]1C=C[C@@H](NC(=O)CN2CCOCC2)[C@@H](CO)O1)NCCc1ccccc1 | 1.02 |
| O=c1cc(CO)occ1O | 0.924 |
| COCCOC(=O)N1C(=O)[C@@]2(c3cc(C#CCNC(N)=O)ccc31)[C@H](C(=O)N1CCc3cc(OC)c(OC)cc3C1)[C@H]1C(=O)O[C@H](c3ccccc3)[C@H](c3ccccc3)N1[C@@H]2c1ccccc1OCCO | 0.813 |
| C[N+](C)(C)CCCCCC[N+](C)(C)C.[Br-].[Br-] | 0.911 |
| CN(C)Cc1cn(CC[C@H]2CC[C@@H](NC(=O)Cc3cccnc3)[C@@H](CO)O2)nn1 | 0.943 |
| COc1ccccc1S(=O)(=O)N(C)C[C@@H]1Oc2cc(C#CCC(C)C)ccc2S(=O)(=O)N([C@H](C)CO)C[C@@H]1C | 1.19 |
| NC(=S)CN1CCCC1=O | 0.886 |
| O=C(C[C@@H]1CC[C@H]2[C@@H](COC[C@@H](O)CN2C(=O)c2ccncc2)O1)NC1CCC1 | 1.07 |
| Cn1c(CN)nc2ccccc2c1=O | 1.02 |
| Cc1nc(S(=O)(=O)N[C@H]2CCS(=O)(=O)C2)cn1C | 1.01 |

| SMILES | relative growth |
| --- | --- |
| CC(C)c1c(O)c(-c2cc3c(c(C(C)C)c2O)CCC2C(C)(C)CCC[C@]32C)cc2c1CCC1C(C)(C)CCC[C@]21C (some centres not stated) | 0.992 |
| CCc1nc(N)nc(N)c1-c1ccc(Cl)cc1 | 0.231 |
| Cn1nnc2cc(NC(=O)NCCO)ccc21 | 0.906 |
| CC(=O)[C@@]1(O)CC[C@H]2[C@@H]3C[C@H](C)C4=CC(=O)C=C[C@]4(C)[C@@]3(F)[C@@H](O)C[C@@]21C | 0.876 |
| CC1=NN2NC(C(F)(F)F)=NN2C(=O)C1 | 1.03 |
| CCCc1nn(C)c2c(=O)[nH]c(-c3cc(S(=O)(=O)N4CCN(C)CC4)ccc3OCC)nc12.O=C(O)CC(O)(CC(=O)O)C(=O)O | 1.12 |
| NNS(=O)(=O)c1ccc(Oc2ccc(S(=O)(=O)NN)cc2)cc1 | 1.04 |
| C[C@@H]1CN([C@H](C)CO)S(=O)(=O)c2ccc(C#Cc3cccc(F)c3)cc2O[C@@H]1CN(C)S(=O)(=O)c1cn(C)cn1 | 0.874 |
| Cc1cc(C)c2c(c1)NC(=O)C[C@H]2c1cccc(Cl)c1Cl | 1.32 |
| NC1(C#Cc2cncc(C(=O)N3CCOCC3)c2)CCCCC1 | 1.1 |
| CC(=O)ON1C(C)(C)C=C(C(N)=O)C1(C)C | 0.929 |
| O=C1/C(=C/c2cccs2)CCC/C1=C\c1cccs1 | 1 |
| COCC(=O)Nc1ccc2c(c1)OC[C@H](C)N(Cc1ccccc1OC)C[C@@H](C)[C@@H](OC)CN(C)C2=O | 1.01 |
| COc1ccc(S(=O)(=O)N2C[C@@H](O)COC[C@H]3O[C@H](CC(=O)NCc4ccc(Cl)c(Cl)c4)CC[C@@H]32)cc1 | 0.888 |
| Cc1cc(C(=O)O)cc(S(N)(=O)=O)c1 | 1.08 |
| C#CCCCCCCCCCCCC(O)CC(O)COC(C)=O.C=CCCCCCCCCCCCC(O)CC(O)COC(C)=O (configuration not stated) | 0.813 |
| C[C@H](CO)N1C[C@H](C)[C@@H](CN(C)C(=O)C2CCOCC2)Oc2cc(-c3ccc(F)cc3)ccc2S1(=O)=O | 0.952 |
| CCN(CC)CCOC(=O)C(Cc1cccc2ccccc12)CC1CCCO1.O=C(O)C(=O)O (configuration not stated) | 1.01 |
| O=S(=O)(NCC[C@@H]1CC[C@@H](NS(=O)(=O)c2ccccc2Cl)[C@H](CO)O1)c1ccc(F)cc1 | 0.921 |
| C=CC(C1=CC(=O)C(OC)=CC1=O)c1ccccc1 (configuration not stated) | 1.05 |
| O=C(C[C@H]1CC[C@H](NC(=O)CN2CCOCC2)[C@H](CO)O1)NCCc1ccccc1 | 1.03 |
| Clc1ccc(C(Cn2ccnc2)OCc2ccsc2Cl)c(Cl)c1 (configuration not stated) | 0.845 |

| SMILES | relative growth |
| --- | --- |
| O=C(c1cccc2ccccc12)N(C1CCCC1)C1CCCC1 | 1.05 |
| C[C@H](O)C#Cc1ccc2c(c1)O[C@H](CN(C)C(=O)Nc1ccccc1)[C@H](C)CN([C@H](C)CO)S2(=O)=O | 0.978 |
| COCCNC(=O)C[C@H]1CC[C@@H]2[C@H](COc3ccc(NC(=O)Nc4cccc(F)c4)cc3C(=O)N2C)O1 | 0.855 |
| CN1CCN(C(=O)C[C@@H]2CC[C@@H]3[C@H](COC[C@H](O)CN3S(=O)(=O)c3cccc(F)c3)O2)CC1 | 1.04 |
| CC(=O)Oc1cc2c(s1)CCN([C@H](C(=O)C1CC1)c1ccccc1F)C2 | 1.34 |
| Nc1ccc(Sc2ccc3ccccc3c2Cl)c(Cl)c1 | 0.886 |
| Cl.NC(CS)C(=O)O (configuration not stated) | 0.9 |
| C[C@](N)(Cc1ccc(O)c(O)c1)C(=O)O | 0.931 |
| c1cnc(N2CCN(Cc3ccc4c(c3)OCO4)CC2)nc1 | 0.889 |
| O=C(C[C@@H]1C/C=C/C[C@H](Cc2ccccc2)C(=O)N[C@H](c2ccccc2)COC1=O)NCc1ccc(Cl)cc1 | 0.892 |
| Cc1cc(O)c(C(=O)/C=C/N(C)C)c(=O)o1 | 1.07 |
| COc1cc2c(cc1OC)-c1c(oc3c4c(ccc3c1=O)OC(C)(C)C=C4)CO2 | 1.15 |
| IC(I)I | 0.598 |
| CN1C(=O)c2ccccc2C1=O | 1.02 |
| COc1cccc(C(=O)c2ccccc2)c1 | 0.997 |
| COc1cccc(S(=O)(=O)N2C[C@H](O)COC[C@@H]3O[C@@H](CC(=O)N4CCN(C)CC4)CC[C@H]32)c1 | 0.856 |
| C[C@@H]1COS(=O)(=O)N1 | 0.952 |
| C/C=C/c1ccc2c(c1)O[C@@H](CN(C)Cc1ccc(C(=O)O)cc1)[C@H](C)CN([C@@H](C)CO)S2(=O)=O | 1.17 |
| COc1cc2c(cc1OC)CN(C(=O)[C@@H]1[C@H]3C(=O)O[C@H](c4ccccc4)[C@H](c4ccccc4)N3[C@H](c3ccc(OCCO)cc3)[C@@]13C(=O)Nc1ccccc13)CC2 | 1.23 |
| Cc1ccc(NC2=CC(=O)C[C@H](c3ccc(Cl)cc3)C2)cc1 | 1.01 |
| O=C(C[C@@H]1C=C[C@@H](NC(=O)Cc2ccccn2)[C@H](CO)O1)NCCc1ccncc1 | 0.981 |
| O=C(C[C@@H]1CC[C@H]2[C@@H](COC[C@H](O)CN2C(=O)Nc2cccc(F)c2)O1)NCc1ccccc1Cl | 0.945 |

| SMILES | relative growth |
| --- | --- |
| CCOC(=O)C1=C(COCCN)NC(C)=C(C(=O)OC)C1c1ccccc1Cl.O=S(=O)(O)c1ccccc1 (configuration not stated) | 1.1 |
| Cc1ccc(NC(=O)c2ccc(CN3CCN(C)CC3)cc2)cc1Nc1nccc(-c2cccnc2)n1 | 0.997 |
| CO[C@@H]1CN(C)C(=O)c2cc(NC(=O)Nc3ccccc3F)ccc2OC[C@H](C)N(Cc2ccccc2C(=O)O)C[C@@H]1C | 1 |
| O=C(C[C@@H]1C=C[C@H](NC(=O)c2cccnc2)[C@H](CO)O1)NCCN1CCCCC1 | 1.09 |
| COCC(=O)Nc1ccc2c(c1)OC[C@@H](C)N(C(=O)Cc1ccccn1)C[C@H](C)[C@@H](OC)CN(C)C2=O | 1.07 |
| C[C@@H]1CN([C@H](C)CO)C(=O)c2cc(C#CCN(C)C)cnc2O[C@@H]1CN(C)C(=O)Nc1cccc(F)c1 | 0.966 |
| Cn1cnc(S(=O)(=O)N2C[C@@H](O)COC[C@@H]3O[C@H](CC(=O)NC4CCC4)CC[C@H]32)c1 | 1.08 |
| O=C(NC[C@@H](O)CO)[C@]1(Cc2ccccc2)N=C(c2ccc(OCCCO)cc2)O[C@@H]1c1ccccc1 | 0.718 |
| Cc1ccccc1S(=O)(=O)N1C[C@@H](O)COC[C@@H]2O[C@@H](CC(=O)NCCc3ccccc3)CC[C@H]21 | 1.09 |
| CN(C)CCC(=O)N1CCNCC1 | 1.21 |
| O=C(C[C@H]1CC[C@@H]2[C@H](COC[C@@H](O)CN2S(=O)(=O)c2ccccc2)O1)NCc1ccc(-c2ccccc2)cc1 | 0.903 |
| O=C(C[C@@H]1CC[C@@H](NC(=O)Nc2ccc3c(c2)OCO3)[C@H](CO)O1)NCCCN1CCOCC1 | 0.865 |
| CCOC(=O)COc1ccc2c(=O)cc(-c3ccccc3)oc2c1 | 0.903 |
| NC(=O)CCNCc1ccccc1 | 0.839 |
| CN1C2CCCC1CC(NC(=O)c1nn(C)c3ccccc13)C2.Cl (configuration not stated) | 1.04 |
| Cn1c(=O)[nH]c(=O)c2[nH]cnc21 | 0.927 |
| C[N+](C)(C)CCOC(N)=O.[Cl-] | 1.11 |
| CCN1C(=O)S[C@@H](CC(=O)O)C1=O | 1.14 |
| NC[C@@H](c1cccnc1)S(=O)(=O)c1ccc(Cl)cc1 | 1 |
| FC(F)(F)c1ccc(CSc2c[nH]c3ccccc23)cc1 | 0.812 |
| O=C(C1CCCCC1)N1CC(=O)N2CCc3ccccc3C2C1 (configuration not stated) | 1.05 |

Reference: published antibiotic growth screens (doi:10.1038/s41589-023-01349-8)
